Measurements from ChEMBL document CHEMBL3714716, “Modulators of the relaxin receptor 1” (2015).

Target: T1, Relaxin receptor 1 (Homo sapiens) (UniProt Q9HBX9)
T1 sequence (whole entry): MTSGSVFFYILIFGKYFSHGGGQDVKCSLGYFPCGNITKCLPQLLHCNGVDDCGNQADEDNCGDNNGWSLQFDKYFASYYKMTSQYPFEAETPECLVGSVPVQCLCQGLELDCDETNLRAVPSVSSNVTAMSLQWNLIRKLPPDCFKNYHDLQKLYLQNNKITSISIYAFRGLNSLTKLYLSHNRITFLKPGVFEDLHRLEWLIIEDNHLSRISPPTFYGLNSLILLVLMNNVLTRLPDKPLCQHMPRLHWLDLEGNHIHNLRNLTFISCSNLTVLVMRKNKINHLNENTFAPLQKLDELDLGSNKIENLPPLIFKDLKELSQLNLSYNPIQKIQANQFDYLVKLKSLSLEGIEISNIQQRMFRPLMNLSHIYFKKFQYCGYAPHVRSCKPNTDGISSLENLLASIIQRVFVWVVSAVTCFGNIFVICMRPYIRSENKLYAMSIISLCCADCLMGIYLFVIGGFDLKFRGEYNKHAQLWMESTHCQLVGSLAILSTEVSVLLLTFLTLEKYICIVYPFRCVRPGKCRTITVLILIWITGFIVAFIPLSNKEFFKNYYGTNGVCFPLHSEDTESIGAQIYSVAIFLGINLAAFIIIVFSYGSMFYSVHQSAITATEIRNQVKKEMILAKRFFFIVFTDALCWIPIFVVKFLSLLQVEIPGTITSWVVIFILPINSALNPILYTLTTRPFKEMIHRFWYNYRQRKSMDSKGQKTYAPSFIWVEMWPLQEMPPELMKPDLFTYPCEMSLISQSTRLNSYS
Assay: Agonist activity at RXFP1 receptor (unknown origin) expressed in HEK293 cells assessed as stimulation of cAMP production incubated for 30 mins by TR-FRET based HTRF assay relative to forskolin
Format: functional, cell-based

| Compound | %max |
| --- | --- |
| CC(C)Oc1ccccc1C(=O)Nc1ccccc1C(=O)Nc1cccc(S(=O)(=O)C(F)(F)F)c1 | 98% |
| CCOc1ccccc1-c1nc2ccccc2c2nc3ccc(C(F)(F)F)cc3n12 | 34% |
